Compound activity as filed in PubChem BioAssay.
In the library only some 1% were active in any assay of this set; here they are far more common.
Cneo AK release – Cryptococcus neoformans lysis via adenylate kinase release; lysis activity, % at 15 µM; C. neoformans lysis, adenylate kinase release luminescence, 4 h; normalised: neutral wells 0, clomiphene wells 100; 360,000 compounds, 0.2% hits;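 active = mean lysis activity across replicates of at least 80%, whatever share of replicates individually reach that level; inactive = mean lysis activity below 80%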
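Test system: log-phase Cryptococcus neoformans yeast cells; Quantity: yeast cell density of 5 × 10^6 cells/mL; Buffer or medium: YPD; Doses: single compound concentration per well; Timing: 4 h at 37 °C static, read 1 h later; Measured by: AK luminescence; Read-out basis: lysis from increased AK signal; Control set: Clomiphene as positive control.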
CDK5 inh – inhibitors of human CDK5/p35 kinase. Q00535+Q15078. Recombinant CDK5/p35, ADP-Glo luminescence, 60 min. inhibition, % at 10 µM. 330,000 compounds, 0.01% hits. AID 488839;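 active = highest replicate inhibition of at least 50% and at least 75% of replicates reaching 50%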;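 note: plate controls were DMSO neutral control for no effect and GW8510 at 10 µM for full effect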
Statin myotox sup – suppressors of simvastatin-induced myotoxicity in C2C12 myotubes; ATP luminescence, 48 h; scaled: DMSO 0, geranylgeraniol control 100; rescue of ATP level, % at 7.49 µM; 330,000 compounds, 0.78% hits;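 active = mean ATP rescue above about 67%, or every replicate alone reaching that limit, limit read from the data, passing the limit was not always enough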;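 note: myotubes were challenged with 10 µM simvastatin during compound exposure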
Rtt109 HAT inh – blocks Candida albicans Rtt109/Vps75 acetyltransferase activity; Q5AAJ8; purified Rtt109/Vps75, ThioGlo CoA-SH fluorescence, 4 h; inhibition, % at 34.9 µM; 330,000 compounds, 0.16% hits; AID 540336;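 active = inhibition of at least 50% in every replicate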
UUG fidelity – modulators of start codon recognition fidelity in yeast. S. cerevisiae UUG-firefly luciferase reporter, luminescence/redox ratio. activity score, % at 18.7 µM. 0.13% of 350,000 active. AID 602363;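 active = replicate mean at a twofold rise or more, about +100% in these data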;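 also: firefly luciferase made from a UUG start codon reports start codon fidelity; reporter light over untreated wells divided by growth signal over untreated wells; some hits fall short of that in this replicate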
* = called active by the depositor; · = no result given.

SMILES	Cneo AK release	CDK5 inh	Statin myotox sup	Rtt109 HAT inh	UUG fidelity
COc1cccc(CNC(=O)C[C@@H]2C=C[C@H](NC(=O)C3CCC3)[C@H](CO)O2)c1	-15	·	-3	·	·
N#Cc1ccc(-c2ccc3c(c2)[C@H]2[C@H](CCN2C(=O)CN2CCOCC2)[C@@H](CO)N3)cc1	3	·	1	·	-9
COCC(=O)N(C)C[C@@H]1Oc2ncc(C#CCC3CCCC3)cc2C(=O)N([C@H](C)CO)C[C@H]1C	87*	·	9	·	23
C[C@H](CO)N1C[C@H](C)[C@H](CN(C)Cc2ccc(-c3ccccc3)cc2)OCc2cnnn2CCCC1=O	-6	·	5	·	·
COc1ccc(C2CC(=O)C(C=NCCO)=C(O)C2)cc1OC (configuration not stated)	0	0	-5	8	-8
COc1ccc(C2CC(=O)C(C=NCCO)=C(O)C2)cc1 (configuration not stated)	-1	0	1	54*	-7
COc1cc2c(C(=O)NCCCN3CCN(c4cccc(Cl)c4)CC3)cn(C)c(=O)c2cc1OC	1	3	122*	4	-5
O=C(CCN1CCCCC1)NCC[C@H]1CC[C@H](NC(=O)Nc2ccc(F)cc2)[C@H](CO)O1	1	·	4	·	5
C[C@@H]1CCCCO[C@@H](CN(C)S(C)(=O)=O)[C@@H](C)CN([C@H](C)CO)C(=O)c2cc(NS(=O)(=O)c3ccc(F)cc3)ccc2O1	-2	·	18	·	2
CO[C@@H]1CN(C)C(=O)c2ccc(NC(C)=O)cc2OC[C@@H](C)N(C(=O)Cc2cccnc2)C[C@H]1C	97*	·	7	·	17
COCC(=O)Nc1ccc2c(c1)C(=O)N(C)C[C@H](OC)[C@@H](C)CN(C(=O)c1ccccc1)[C@@H](C)CO2	95*	·	-6	·	·
CO[C@H]1CN(C)C(=O)c2ccc(NS(=O)(=O)CC(F)(F)F)cc2OC[C@H](C)N(Cc2cccnc2)C[C@@H]1C	0	·	-2	·	·
COCC(=O)Nc1ccc2c(c1)OC[C@@H](C)N(C(=O)Cc1cccnc1)C[C@H](C)[C@@H](OC)CN(C)C2=O	92*	·	-2	·	7
CO[C@H]1CN(C)C(=O)c2cc(NS(=O)(=O)CC(F)(F)F)ccc2OC[C@H](C)N(Cc2cccnc2)C[C@@H]1C	103*	·	-2	·	-4
COCC(=O)Nc1ccc2c(c1)C(=O)N(C)C[C@@H](OC)[C@H](C)CN(C(=O)c1ccccc1)[C@@H](C)CO2	52	·	1	·	·
CO[C@@H]1CN(C)C(=O)c2ccc(NC(C)=O)cc2OC[C@H](C)N(C(=O)Cc2cccnc2)C[C@@H]1C	0	·	-3	·	6
O=C(C[C@@H]1C[C@@H]2c3cc(NS(=O)(=O)c4ccc(F)cc4)ccc3O[C@@H]2[C@H](CO)O1)N1CCOCC1	2	·	-2	·	-7
C[C@H]1CN([C@@H](C)CO)C(=O)c2cc(C#CCN(C)C)cnc2O[C@H]1CN(C)Cc1cccc(C(=O)O)c1	-2	·	-28	·	7
CC(=O)N[C@H]1C=C[C@H](CC(=O)NCC2CCCCC2)O[C@H]1CO	3	·	0	·	-18
COCC(=O)N1C[C@H](C)[C@H](OC)CN(C)C(=O)c2ccc(NC(=O)NC(C)C)cc2OC[C@@H]1C	80*	·	-7	·	27
CCC(=O)Nc1ccc2c(c1)C(=O)N(C)C[C@H](OC)[C@@H](C)CN[C@H](C)CO2	84*	·	-3	·	4
Cc1ccc(C2CC2C(=O)NNC(=S)Nc2cccc(Cl)c2)cc1 (configuration not stated)	3	2	81*	-4	-25
Cc1ccc(C2CC2C(=O)NNC(=S)Nc2cccc(C)c2)cc1 (configuration not stated)	2	0	42	·	-22
CCC[C@H]1COCCS(=O)(=O)N1Cc1ccccc1F	0	1	79*	3	-7
O=C(NCC(=O)N(Cc1ccccc1)C(C(=O)NC1CCCCC1)c1ccco1)c1ccco1 (configuration not stated)	-2	0	110*	6	-4

Some of the entries above, reformatted:
Values run as follows: Cneo AK release, CDK5 inh, Statin myotox sup, Rtt109 HAT inh, UUG fidelity
COc1cccc(CNC(=O)C[C@@H]2C=C[C@H](NC(=O)C3CCC3)[C@H](CO)O2)c1
→ -15, ·, -3, ·, ·
N#Cc1ccc(-c2ccc3c(c2)[C@H]2[C@H](CCN2C(=O)CN2CCOCC2)[C@@H](CO)N3)cc1
→ 3, ·, 1, ·, -9

(further entries)
SMILES	Cneo AK release	CDK5 inh	Statin myotox sup	Rtt109 HAT inh	UUG fidelity
CCOC(=O)CN(C(=O)CNC(=O)c1ccco1)C(C(=O)NC1CCCCC1)c1cccs1 (configuration not stated)	-1	0	124*	-3	1
COc1ccc(C(C(=O)NC2CCCC2)N(Cc2ccccc2)C(=O)CNC(=O)c2ccco2)cc1 (configuration not stated)	6	1	5	1	14
COc1cccc(-c2ccc3n(c2=O)C[C@H]2[C@H](CO)[C@@H](C(=O)NC4CCC4)N(S(C)(=O)=O)[C@@H]32)c1	-2	·	-6	·	·
C[C@@H]1CN([C@H](C)CO)C(=O)c2cc(NC(=O)CCCN(C)C)ccc2O[C@@H](C)CCCCO[C@H]1CN(C)Cc1ccncc1	3	·	4	·	-23
O=C(N[C@@H]1CC[C@@H](CCNC(=O)c2ccccc2F)O[C@H]1CO)c1ccc2c(c1)OCO2	-1	·	4	·	-5
Cc1nc(N2CCC3(CC2)OCCO3)c2nnn(Cc3ccccc3F)c2n1	-1	0	130*	1	9
Cc1nc(N2CCCC2)c2nnn(Cc3ccccc3Cl)c2n1	-2	2	76*	-6	-8
Cc1noc(C)c1NC(=O)N(C)C[C@H]1OCCCC[C@@H](C)Oc2ccc(NC(=O)NC3CCCCC3)cc2C(=O)N([C@@H](C)CO)C[C@H]1C	0	·	·	·	-3
C[C@@H]1CCCCO[C@@H](CN(C)C(=O)Nc2cccc3ccccc23)[C@@H](C)CN([C@H](C)CO)C(=O)c2cc(NC(=O)Nc3ccc(F)cc3)ccc2O1	0	·	·	·	-9
Cn1cccc1/C=C1\SC(=S)N(NC(=O)c2ccccc2O)C1=O	·	0	·	-2	·
O=C(NN1C(=O)/C(=C/C=C/c2ccco2)SC1=S)c1ccccc1O	-3	-20	6	70*	9
CCOc1cc(NC(=O)C2CC2)c(OCC)cc1NC(=O)c1ccccn1	4	-1	121*	-21	-3
CCC(=O)N(C)C[C@H]1Oc2ncc(-c3ccccc3F)cc2C(=O)N([C@H](C)CO)C[C@H]1C	-2	·	22	·	-5
CO[C@@H]1CN(C)C(=O)c2ccc(NC(=O)Cc3ccccc3)cc2OC[C@@H](C)N(CCc2ccccc2)C[C@H]1C	0	·	48	·	3
CN1C(=O)c2cc(NC(=O)c3ccc(C(F)(F)F)cc3)ccc2OC[C@@H]2O[C@H](CC(=O)O)CC[C@@H]21	0	·	-6	·	1
C[C@@H]1CN([C@@H](C)CO)C(=O)c2cccc(NC(=O)C3CCOCC3)c2O[C@@H]1CN(C)Cc1ccncc1	-3	·	-1	·	-9
C[C@@H]1CN([C@H](C)CO)C(=O)Cc2cc(NC(=O)Cc3cn(C)c4ccccc34)ccc2O[C@@H]1CN(C)Cc1ccc2c(c1)OCO2	2	·	86*	·	7

Of the compounds above, these contain a Cl atom.
SMILES	Cneo AK release	CDK5 inh	Statin myotox sup	Rtt109 HAT inh	UUG fidelity
COc1cc2c(C(=O)NCCCN3CCN(c4cccc(Cl)c4)CC3)cn(C)c(=O)c2cc1OC	1	3	122*	4	-5
Cc1ccc(C2CC2C(=O)NNC(=S)Nc2cccc(Cl)c2)cc1 (configuration not stated)	3	2	81*	-4	-25
Cc1nc(N2CCCC2)c2nnn(Cc3ccccc3Cl)c2n1	-2	2	76*	-6	-8
